Counter-ions that a name gives are not always drawn.
The compounds below were run against human melanin concentrating hormone receptor (MCHR1), mutated (E4Q, A5T) hMCHR1 (Homo sapiens (Human), UniProt Q99705, A5T/E4Q) (assay: Radioligand binding assay for assessment of MCHR1 activity ([125I]-MCH competition, HEK-293 membranes)). Settings: Table I.

The chains behind the UniProt entries cited, without tags or fusion partners.
UniProt Q99705, whole entry E4Q/A5T: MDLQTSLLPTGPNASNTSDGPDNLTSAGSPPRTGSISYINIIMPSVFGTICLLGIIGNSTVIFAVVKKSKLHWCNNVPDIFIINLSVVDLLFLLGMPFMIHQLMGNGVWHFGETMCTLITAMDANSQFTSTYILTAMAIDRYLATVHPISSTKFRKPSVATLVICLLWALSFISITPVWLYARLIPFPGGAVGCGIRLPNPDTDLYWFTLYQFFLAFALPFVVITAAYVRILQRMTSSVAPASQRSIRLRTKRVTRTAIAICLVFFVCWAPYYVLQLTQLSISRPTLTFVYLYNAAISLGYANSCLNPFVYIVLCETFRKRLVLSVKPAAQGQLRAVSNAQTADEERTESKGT

SMILES | Ki
O=C1C(Oc2ccc(C3CC3)cc2)=CCN1[C@H]1CC[C@H](OCCN2CCC[C@H]2CO)CC1 [Example 247] | 23 nM
O=C1C(Oc2ccc(C3CC3)cc2)=CCN1[C@H]1CC[C@H](OCCN2CCC2)CC1 [Example 249] | 790 nM
O=C1C(Oc2ccc(C3CC3)cc2)=CCN1[C@H]1CC[C@H](OCCN2CCC(F)(F)CC2)CC1 [Example 250] | 51 nM

Same assay, conditions: Table J

SMILES | Ki
CC1(O)CN(CCn2ncc3cc(N4CC=C(Oc5ccc(C6CC6)cc5)C4=O)ccc32)C1 [Example 253] | 3.8 nM
O=C1C(Oc2ccc(C3CC3)cc2)=CCN1c1ccc2c(cnn2CCN2CC[C@@H](O)C2)c1 [Example 254] | 1 nM
COC1CN(CCn2ncc3cc(N4CC=C(Oc5ccc(C6CC6)cc5)C4=O)ccc32)C1 [Example 255] | 2.8 nM
O=C1C(Oc2ccc(C3CC3)cc2)=CCN1c1ccc2c(cnn2CCN2CC(O)C2)c1 [Example 256] | 1.9 nM
O=C1C(Oc2ccc(C3CC3)cc2)=CCN1c1ccc2c(cnn2CCN2CCC[C@H](O)C2)c1 [Example 257] | 0.8 nM
O=C1C(Oc2ccc(C3CC3)cc2)=CCN1c1ccc2c(cnn2CCN2CCC(F)(F)CC2)c1 [Example 258] | 9.5 nM
O=C1C(Oc2ccc(C3CC3)cc2)=CCN1c1ccc2c(cnn2CCN2CCC2)c1 [Example 259] | 1.2 nM
O=C1C(Oc2ccc(C3CC3)cc2)=CCN1c1ccc2c(cnn2CCN2CCC[C@@H]2CO)c1 [Example 260] | 0.6 nM
O=C1C(Oc2ccc(C3CC3)cc2)=CCN1c1ccc2c(cnn2CCN2CCC[C@H]2CO)c1 [Example 261] | 1.7 nM
O=C1C(Oc2ccc(C3CC3)cc2)=CCN1c1ccc2c(cnn2CCN2CC[C@@H](F)C2)c1 [Example 262] | 1.1 nM
O=C1C(Oc2ccc(C3CC3)cc2)=CCN1c1ccc2c(cnn2CCN2CC[C@H](F)C2)c1 [Example 263] | 1.5 nM
O=C1C(Oc2ccc(C3CC3)cc2)=CCN1c1ccc2c(cnn2CCN2CC[C@H](O)C2)c1 [Example 264] | 0.8 nM
O=C1C(Oc2ccc(C3CC3)cc2)=CCN1c1ccc2c(cnn2CCN2CCC(F)(F)C2)c1 [Example 265] | 59 nM
O=C1C(Oc2ccc(C3CC3)cc2)=CCN1c1ccc2c(cnn2CCN2CC=CC2)c1 [Example 266] | 0.7 nM
O=C1CN(CCn2ncc3cc(N4CC=C(Oc5ccc(C6CC6)cc5)C4=O)ccc32)CCN1 [Example 267] | 118 nM

Same assay, conditions: Table L

SMILES | Ki
COc1cc(N2CC=C(Oc3ccc(C4CC4)cc3)C2=O)ccc1CN1CC(S(C)(=O)=O)C1 [Example 273] | 189 nM
COc1cc(N2CC=C(Oc3ccc(C4CC4)cc3)C2=O)ccc1CN1CC(O)(C(F)(F)F)C1 [Example 275] | 191 nM
COc1cc(N2CC=C(Oc3ccc(C4CC4)cc3)C2=O)ccc1CN1CCNC(=O)C1 [Example 276] | 396 nM
COc1cc(N2CC=C(Oc3ccc(C4CC4)cc3)C2=O)ccc1CN1CC(C)(O)C1 [Example 277] | 154 nM
COc1cc(N2CC=C(Oc3ccc(C4CC4)cc3)C2=O)ccc1CN1CC(O)(C2CC2)C1 [Example 278] | 40 nM
COc1cc(N2CC=C(Oc3ccc(C4CC4)cc3)C2=O)ccc1CN1CC[C@@H](O)C1 [Example 279] | 234 nM
COc1cc(N2CC=C(Oc3ccc(C4CC4)cc3)C2=O)ccc1CN1CC[C@H](O)C1 [Example 280] | 335 nM
COc1cc(N2CC=C(Oc3ccc(C4CC4)cc3)C2=O)ccc1CN1CC[C@@H](F)C1 [Example 281] | 258 nM

Same assay, conditions: Table N

SMILES | Ki
COc1cc(N2CC=C(Oc3ccc(C4CC4)cc3)C2=O)ccc1O[C@@H]1CCNC1 [Example 298, (R)-3-(4-Cyclopropylphenoxy)-1-(3-methoxy-4-(pyrrolidin-3-yloxy)phenyl)-1H-pyrrol-2(5H)-one. hydrochloride] | 6 nM

Same assay, conditions: membranes from HEK-293 cells expressing mutated (E4Q, A5T) hMCHR1; 0.06-0.1 nM [Phe13,[125I]Tyr19]-MCH

SMILES | Ki
O=C1C(Oc2ccc(C3CC3)cc2)=CCN1[C@H]1C[C@@H](OCCN2CC[C@H](O)C2)C1 [Example 238] | 128 nM
CC1(O)CN(CCO[C@H]2C[C@@H](N3CC=C(Oc4ccc(C5CC5)cc4)C3=O)C2)C1 [Example 240] | 3000 nM
O=C1C(Oc2ccc(C3CC3)cc2)=CCN1[C@H]1C[C@@H](OCCN2CC[C@@H](O)C2)C1 [Example 241] | 2360 nM
O=C1C(Oc2ccc(C3CC3)cc2)=CCN1c1cnn(CCN2CC(O)C2)c1 [Example 268, 3-(4-cyclopropylphenoxy)-1-(1-(2-(3-hydroxyazetidin-1-yl)ethyl)-1H-pyrazol-4-yl)-1H-pyrrol-2(5H)-one] | 923 nM
CS(=O)(=O)C1CN(CCn2cc(N3CC=C(Oc4ccc(C5CC5)cc4)C3=O)cn2)C1 [Example 269] | 1410 nM
COC1CN(CCn2cc(N3CC=C(Oc4ccc(C5CC5)cc4)C3=O)cn2)C1 [Example 270] | 400 nM
